Experimental data as given in ChEMBL document CHEMBL1153777, “Substituted benzothiadizine inhibitors of Hepatitis C virus polymerase” (Bioorg Med Chem Lett, 2009).

Species on record: Homo sapiens
Assay: Protein binding in human plasma by equilibrium dialysis
Details: read-out: PPB

Which fraction unbound does the source give for `O=c1c(C2=Nc3ccccc3S(=O)(=O)N2)c(O)c2cc(F)ccc2n1CCC1CC1` here?
Its fraction unbound is 0.001.
